Data taken from patent US6924264.

Target: GLP-1 receptor of RINm5f cell membranes (UniProt P32301)
Assay: cell-based or functional assay

exendin-4 (peptide) showed a GLP-1 Cyclase EC50 of 0.27 nM.
